PMC8659078, “A Validated HPLC-PDA-HRMS Method to Investigate the Biological Stability and Metabolism of Antiparasitic Triterpenic Esters” (Molecules, 2021)

Key:
[1] = microsomes
[2] = Microsomal stability (pooled male mouse liver microsomes, NADPH regenerating system); conditions: 1 mg/mL microsomes, 37 °C

ursolic acid-3-O-phenyl propionate [UA-3-O-PP]
mouse in vitro intrinsic clearance class [1]: low
Kloss (elimination rate constant) ([2]; first-order decay fit): 0.003 min⁻¹
t1/2 (in vitro half-life) ([2]; first-order kinetics assumed): 4.405 h
Cl Int (in vitro intrinsic clearance) ([2]; linear kinetic assumed): 5.24 µg/min/mg
